By UniProt entry, the sequences of proteins in these tests, tags left out. Where a name states a change or a piece, a line headed by the entry shows the natural chain unless it says otherwise.
UniProt P28074: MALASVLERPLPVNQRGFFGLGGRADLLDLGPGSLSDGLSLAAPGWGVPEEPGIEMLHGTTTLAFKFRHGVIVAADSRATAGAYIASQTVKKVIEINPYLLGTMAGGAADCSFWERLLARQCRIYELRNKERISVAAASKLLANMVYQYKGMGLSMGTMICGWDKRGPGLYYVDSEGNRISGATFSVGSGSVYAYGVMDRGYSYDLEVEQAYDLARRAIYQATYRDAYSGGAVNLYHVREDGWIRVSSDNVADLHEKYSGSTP

In paper PMC6937391 (Leukemia research, 2019):

Molecular target: CT-L (β5) proteasomal sub-catalytic activity (Homo sapiens, UniProt P28074)
Assay: Cell-based proteasome activity assay
Conditions: Ki50 CT-L (β5), 24 h treatment

CC(C)C[C@H](NC(=O)CNC(=O)c1cc(Cl)ccc1Cl)B(O)O [IXA, ixazomib]
Ki (ARD cells): 0.0243 ± 0.00476 µM | Ki (MM.1R cells): 0.0111 ± 0.00272 µM | Ki (U266 cells): 0.00612 ± 0.00146 µM
